## Measured affinities in a library of Ab-14 heavy chain variants

All variants were tested on one target, the spike HR2 peptide PDVDLGDISGINAS (SARS-CoV-2).

Parent: Ab-14, a human scFv built as VH, a (GGGGS)3 linker, VL. Only the CDRs of the heavy chain vary.
VH: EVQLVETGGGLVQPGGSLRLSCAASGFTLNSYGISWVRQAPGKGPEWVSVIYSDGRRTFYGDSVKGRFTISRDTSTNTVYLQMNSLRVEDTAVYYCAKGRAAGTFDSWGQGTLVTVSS
VL: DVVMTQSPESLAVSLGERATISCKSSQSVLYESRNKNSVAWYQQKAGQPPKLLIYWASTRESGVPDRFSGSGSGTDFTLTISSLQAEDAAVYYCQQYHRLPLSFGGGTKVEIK

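Designed CDR sequences, proposed from the first random library and measured here. Their group label is 14H_En_Gen (En: ensemble of fine-tuned language models; Gen: genetic algorithm). Affinity was read by AlphaSeq, a pooled yeast mating assay with surface-displayed partners. Binding brings cells together so that they mate, and sequencing counts the barcode pairs among the diploids. The ratio of observed to expected reads was calibrated, replicate by replicate, on BCL2-family standards whose Kd was known from biolayer interferometry. Each pool was mated in six replicate cultures.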

The parent's heavy chain CDRs are GFTLNSYGIS, VIYSDGRRTFYGDSVK, GRAAGTFDS; each variant's own CDRs replace them letter for letter. Numbers give log10(Kd / nM), so 0 is 1 nM and 3 is 1 µM. Smaller is tighter. Replicates are averaged; those with no signal do not enter the mean. "nd" marks a missing value. The strain was present, yet no cells mated with the target were sequenced in that replicate, which points to weak or no binding. In the paper, a design with two or fewer of six values counts as a poor binder. Empty control strains, which show no peptide, gave a signal in 1% of pairings with all heavy chain designs; the median was 2.08 and 95% of these signals were weaker than 0.84. No background was subtracted. Also given: how often the same scFv was detected with the empty control strains, with their mean in brackets. A sequence measured in both rounds can read differently, since the two assays cover different ranges. The parent sequence was in this pool as ten entries: three were never detected, three once, and four in most replicates, with averages from 0.34 to 2.37.

CDR-H1	CDR-H2	CDR-H3	log10 Kd, replicates	mean log10 Kd (nM)	signal with controls
GFDLEDYGIS	VIYADGMRTAYADSVK	GENAGTFDL	nd nd nd nd nd nd	nd	0/18
GFDLDEYGIS	VIYADGMRTAYIDSVK	GNEAGTFDV	-1.08 -0.46 -1.00 -0.96 -0.68 -1.18	-0.89	0/18
GFDLNEYGIS	VIYADGVRTAYADDVK	GNTAGTFDL	-0.25 -0.25 -0.34 -0.55 -0.52 -0.25	-0.36	2/18 (2.23)
GFDLDEYGIS	VIYADGRRTAYSDSVK	GGNAGTFDV	nd nd nd nd nd nd	nd	1/18 (2.09)
GFDLDEYGIS	VIYADGMRTVYADSVK	GQNAGTFDV	-0.27 -0.39 0.76 0.56 1.39 0.13	0.36	0/18
GFDLNEYGIS	VIYADGMRTAYANDVK	GNVAGTFDL	-0.29 -0.50 -0.59 -0.94 -0.68 -0.53	-0.59	0/18
GFDLDEYGIS	VIYADGQRTYYADSVK	GENAGTFDI	-0.23 -0.49 -0.71 -0.55 0.13 0.17	-0.28	0/18
GFNLDEYGIS	VIYADGKRTAYADSVK	GETAGTFDV	0.20 nd 0.38 1.45 0.18 -0.07	0.43	0/18
GFDLNEYGIS	VIYADGMRTAYADDVK	GGNAGTFDV	nd nd nd nd nd nd	nd	1/18 (3.66)
GFDLNEYGIS	VIYADGVRTAYIDSVK	GNQAGTFDI	0.49 nd nd 0.55 nd nd	0.52	0/18
GFDLNEYGIS	VIYADGKRTAYIDSVK	GQNAGTFDV	-0.33 -0.45 -0.52 -0.46 -0.49 -0.28	-0.42	1/18 (2.26)
GFDLNEYGIS	VIYADGKRTAYADSVK	GQVAGTFDL	-0.27 -0.22 -0.26 -0.51 -0.46 -0.11	-0.31	0/18
GFDLNEYGIS	VIYADGVRTAYADKVK	GNNAGTFDV	nd nd 1.49 nd 2.85 nd	2.17	0/18
GFDLNEYGIS	VIYADGVRTAYVDDVK	GENAGTFDV	-0.17 -0.22 -0.62 -0.68 -0.21 -0.08	-0.33	0/18
GFDLNEYGIS	VIYADGKRSFYADSVK	GNVAGTFDV	0.32 -0.78 -0.72 -0.03 -0.65 -0.12	-0.33	0/18
GFDLNEYGIS	VIYADGKRTAYTDSVK	GETAGTFDV	-0.14 -0.67 -0.24 -0.60 -0.77 0.10	-0.39	0/18
GFDLDEYGIS	VIYADGKRTAYADSVK	GNVAGTFDE	-0.05 0.06 -0.07 -0.26 0.14 -0.28	-0.08	0/18
GFDLNEYGIS	VIYADGRRTAYADSVK	GETAGTFDM	-0.32 -0.41 -0.56 -0.67 -0.79 -0.30	-0.51	0/18
GFDLDEYGIS	VIYADGKRTAYSDSVK	GNTAGTFDI	0.17 -0.46 -0.27 -0.90 -0.25 -0.36	-0.34	0/18
GFDLNEYGIS	VIYADGRRTAYADNVK	GENAGTFDV	-1.66 -1.98 -1.81 -1.82 -2.58 -2.43	-2.05	0/18
GFDLDEYGIS	VIYADGRRTAYSDSVK	GQVAGTFDV	-0.80 -0.80 -0.95 -0.90 -0.82 -0.72	-0.83	1/18 (1.09)
GFDLNEYGIS	VIYADGMRTAYANDVK	GETAGTFDV	0.65 -0.21 -0.50 -0.37 -0.20 0.12	-0.09	1/18 (1.90)
GFDLNEYGIS	VIYADGVRTYYSDSVK	GENAGTFDV	-0.24 -0.22 -0.46 -0.51 -0.64 -0.26	-0.39	0/18
GFDLNEYGIS	VIYADGMRKAYADDVK	GNVAGTFDV	nd nd nd nd nd nd	nd	0/18
GFDLNEYGIS	VIYADGRRTAYTDSVK	GNVAGTFDV	-0.55 -0.79 -0.61 0.11 -0.80 -0.48	-0.52	0/18
GFDLNEYGIS	VIYADGMRTVYADSVK	GETAGTFDQ	-0.20 nd 0.70 2.19 0.15 1.13	0.79	0/18
GFDLNEYGIS	VIYADGMRTAYANDVK	GNVAGTFDV	-0.57 -0.77 -0.84 -1.03 -0.78 -0.67	-0.78	0/18
GFDLNEYGIS	VIYADGQRTVYADSVK	GQNAGTFDV	-0.17 -0.64 -0.60 -0.49 -0.57 -0.35	-0.47	1/18 (1.45)
GFDLNEYGIS	VIYADGQRTFYADSVK	GENAGTFDQ	-0.34 -0.49 -0.37 -0.79 -0.50 -0.25	-0.46	0/18
GFDLDEYGIS	VIYADGQRTAYADSVK	GNEAGTFDI	0.22 0.32 0.33 0.31 0.17 0.24	0.26	2/18 (3.71)
GFDLNEYGIS	VIYADGMRTAYANDVK	GNVAGTFDI	-0.37 -0.78 -0.45 -0.29 -0.13 -0.67	-0.45	0/18
GFDLDEYGIS	VIYADGMRTAYADDVK	GNVAGTFDV	-1.12 -1.03 0.69 -1.50 -1.25 -1.28	-0.91	0/18
GFDLNEYGIS	VIYADGRRTAYSDSVK	GNQAGTFDV	-0.39 -0.46 -0.66 -0.72 -0.37 -0.66	-0.54	0/18
GFDLNEYGIS	VIYADGVRTFYADSVK	GEVAGTFDQ	0.98 0.34 0.31 0.58 0.77 0.41	0.57	0/18
GFNLDEYGIS	VIYADGVRTAYADSVK	GNVAGTFDI	-0.08 -0.20 -0.12 -1.08 -0.44 -0.28	-0.37	0/18
GFDLNEYGIS	VIYADGKRTYYADSVK	GNNAGTFDI	-0.44 -0.15 -0.49 -0.49 -0.54 -0.32	-0.41	1/18 (1.18)
GFDLNEYGIS	VIYADGKRTAYSDSVK	GGNAGTFDQ	0.56 -0.11 -0.55 -0.37 -0.47 -0.25	-0.20	0/18
GFDLNEYGIS	VIYADGQRTAYSDSVK	GEVAGTFDV	0.61 0.10 -0.72 -1.12 -0.10 -0.64	-0.31	0/18
GFDLNEYGIS	VIYADGMRTAYADDVK	GNVAGTFDF	-0.23 -0.26 -0.09 -0.68 -0.71 -0.59	-0.43	2/18 (3.35)
GFDLNEYGIS	VIYADGMRTAYADDVK	GHVAGTFDV	-0.86 -0.53 -0.27 -0.35 -0.46 -0.06	-0.42	0/18
GFDLDEYGIS	VIYADGVRTAYADNVK	GEVAGTFDL	-0.09 -0.20 -0.20 -0.18 -0.43 -0.36	-0.24	0/18
GFDLEDYGIS	VIYADGMRTAYADSVK	GENAGTFDV	-0.35 -0.25 -0.27 -0.41 -0.36 -0.35	-0.33	0/18
GFDLDEYGIS	VIYADGVRTAYTDSVK	GTNAGTFDV	-0.65 -0.76 -0.65 -0.83 -0.97 -0.60	-0.74	0/18
GFDLNEYGIS	VIYADGTRTAYADSVK	GNVAGTFDI	-0.60 -0.74 -0.80 -0.84 -0.77 -0.50	-0.71	1/18 (1.88)
GFDLDEYGIS	VIYADGVRTAYADSVK	GEVAGTFDL	-0.41 -0.38 -0.19 -0.61 -0.81 0.31	-0.35	0/18
GFDLNEYGIS	VIYADGMRTAYVDDVK	GGNAGTFDV	nd 0.27 0.22 1.22 0.61 nd	0.58	0/18
GFDLNEYGIS	VIYADGMRTAYTDDVK	GENAGTFDV	-0.12 0.46 0.26 0.00 -0.04 0.75	0.22	1/18 (1.79)
GFDLNEYGIS	VIYADGMRTAYSDNVK	GEVAGTFDM	0.01 0.10 -0.21 -0.66 -0.39 -0.35	-0.25	0/18
GFDLNEYGIS	VIYADGRRTAYADSVK	GNQAGTFDV	0.04 -0.76 -0.34 -1.28 -1.27 -0.49	-0.68	0/18
GFDLNEYGIS	VIYADGMRTAYADTVK	GTNAGTFDV	-0.09 -0.47 -0.46 -0.68 -0.80 -0.34	-0.47	1/18 (1.72)
GFDLNEYGIS	VIYADGMRTAYTDSVK	GGNAGTFDV	0.29 -0.62 -0.54 0.46 -0.43 0.46	-0.06	0/18

Extract of 8 entries:

CDR-H1	CDR-H2	CDR-H3	log10 Kd, replicates	mean log10 Kd (nM)	signal with controls
GFDLNEYGIS	VIYADGVRTAYVDDVK	GENAGTFDV	-0.17 -0.22 -0.62 -0.68 -0.21 -0.08	-0.33	0/18
GFNLDEYGIS	VIYADGKRTAYADSVK	GETAGTFDV	0.20 nd 0.38 1.45 0.18 -0.07	0.43	0/18
GFDLEDYGIS	VIYADGMRTAYADSVK	GENAGTFDV	-0.35 -0.25 -0.27 -0.41 -0.36 -0.35	-0.33	0/18
GFDLDEYGIS	VIYADGVRTAYTDSVK	GTNAGTFDV	-0.65 -0.76 -0.65 -0.83 -0.97 -0.60	-0.74	0/18
GFDLDEYGIS	VIYADGQRTYYADSVK	GENAGTFDI	-0.23 -0.49 -0.71 -0.55 0.13 0.17	-0.28	0/18
GFDLNEYGIS	VIYADGQRTAYSDSVK	GEVAGTFDV	0.61 0.10 -0.72 -1.12 -0.10 -0.64	-0.31	0/18
GFDLNEYGIS	VIYADGMRKAYADDVK	GNVAGTFDV	nd nd nd nd nd nd	nd	0/18
GFDLDEYGIS	VIYADGMRTAYIDSVK	GNEAGTFDV	-1.08 -0.46 -1.00 -0.96 -0.68 -1.18	-0.89	0/18

From the AlphaSeq antibody data of Li et al. 2023 (doi:10.1038/s41467-023-39022-2), copy in the FLAb collection.